Data as given in publication PMC2195822 (The Journal of Experimental Medicine, 2000).

Tests used:
Jak2 = Jak2 tyrosine phosphorylation, immunoprecipitation/Western blot in Kit 225 cells; assay type: cell-based, human; settings: Kit 225 cells stimulated 10 min; IL-2 10 nM, p1–30 60 μM
Shc = Shc tyrosine phosphorylation, Western blot in Kit 225 cells; assay type: cell-based, human; settings: p1–30 60 μM for 1–15 min, IL-2 for 5 min
p56^lck = assay: p56lck in vitro kinase assay; assay type: cell-based, human; settings: Kit 225 cells stimulated 15 min with 10 nM IL-2 or 60 μM p1–30
Jak3 = Jak3 tyrosine phosphorylation, immunoprecipitation/Western blot in Kit 225 cells; assay type: cell-based, human; settings: Kit 225 cells stimulated 10 min; IL-2 10 nM, p1–30 60 μM
[1] = tested on: PBMC subsets (CD4, CD8, CD20, CD56); assay: CD69 expression on PBMC subsets; assay type: cell-based, human; settings: PBMCs stimulated with IL-2 (0.5 nM) or p1–30 (10, 30 or 100 μM) for 1, 2 or 3 d
(IL-2Rβ)2 = settings: read-out: K d of IL-2 for free (IL-2Rβ)2 complexes; stated in discussion; cited from earlier work
PBMCs = assay: PBMC proliferation; assay type: cell-based; settings: human PBMCs, IL-2 0.5 nM or p1–30 3–100 μM, 3 or 6 d
[2] = biological target: high affinity IL-2R (all three chains); settings: read-out: K d for high affinity IL-2R; expression of all three chains; cited from earlier work
[3] = tested on: TS1β cells (TS1 cells transfected with human IL-2Rβ); assay: TS1β cell proliferation assay; assay type: cell-based, murine
Jak1 = Jak1 tyrosine phosphorylation, immunoprecipitation/Western blot in Kit 225 cells; assay type: cell-based, human; settings: Kit 225 cells stimulated 10 min; IL-2 10 nM, p1–30 60 μM

IL-2: human rIL-2 (Chiron)
Jak2 activation (Jak2): unable to activate Jak2 | Shc (p47, p52) phosphorylation (Shc): induced Shc phosphorylation | p56^lck kinase activity (enolase phosphorylation) (p56^lck): induced the kinase activity of p56^lck | Jak3 phosphorylation (Jak3): induced the phosphorylation | CD69 expression on PBMC subsets [1]: induced CD69 expression on these populations | Kd ((IL-2Rβ)2): 100 nM | PBMC proliferation over time (PBMCs): more efficient by day 3 but declined by day 6 | Kd [2]: ~0.01 nM | proliferative response ([3H]TdR incorporation) ([3]; 1 nM IL-2 alone): 38,148 cpm | proliferative response ([3H]TdR incorporation) ([3]; 10 nM IL-2 alone): 72,370 cpm | Jak1 phosphorylation (Jak1): induced the phosphorylation
